This note sets out measurements from US20220389009A1, “SUBSTITUTED 1,6-NAPHTHYRIDINE INHIBITORS OF CDK5” (Goldfinch Bio, Inc., priority 2019, published 2022).

Chains of the proteins cited; added tags and fusions are not shown. Residues count along the entry.
UniProt Q00535, whole entry: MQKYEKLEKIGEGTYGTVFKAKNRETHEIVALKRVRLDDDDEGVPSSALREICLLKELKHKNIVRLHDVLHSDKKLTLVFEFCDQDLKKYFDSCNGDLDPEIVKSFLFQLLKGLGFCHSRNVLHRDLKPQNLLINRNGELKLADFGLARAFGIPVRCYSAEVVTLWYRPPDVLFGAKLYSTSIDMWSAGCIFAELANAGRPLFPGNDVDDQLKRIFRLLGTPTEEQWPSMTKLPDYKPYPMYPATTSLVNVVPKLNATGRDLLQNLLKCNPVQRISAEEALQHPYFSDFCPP
UniProt Q15078, 99-307 partner limits assumed: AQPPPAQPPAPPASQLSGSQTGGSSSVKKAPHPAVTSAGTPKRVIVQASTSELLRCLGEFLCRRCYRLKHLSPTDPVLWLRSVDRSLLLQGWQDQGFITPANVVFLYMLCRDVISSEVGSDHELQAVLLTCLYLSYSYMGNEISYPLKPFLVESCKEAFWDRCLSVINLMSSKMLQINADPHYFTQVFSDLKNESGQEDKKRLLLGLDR

In assay [1] the target is CDK2/CycA2 (Homo sapiens, UniProt P24941). Kind of assay: CDK2 mobility shift assay (enzymatic activity of CDK2/CycA2). Conditions: read-out: CDK2 IC50; 1.25 nM CDK2/CycA2, 37 μM ATP, FL Peptide 18, 120 min at room temperature.
For assay [2], the target named is CDK5/p25 (Homo sapiens, UniProt Q00535). The assay can be described thus: CDK5 mobility shift assay (enzymatic activity of CDK5/p25). Conditions: for CDK5/CDK2 specificity: fold more active against CDK5 than CDK2; for IC50: read-out: CDK5 IC50, 0.154 nM CDK5/p25, FL peptide 29, 60 min at room temperature.

A value given as a limit tells only on which side of the number the result lay.

As a reminder, the IC50 is the concentration that gives 50% inhibition. As for `C[C@H]1CNCC[C@H]1Sc1ccc2cnc(Nc3ccc(-n4ccc(CO)n4)cc3F)cc2n1`, the 50% inhibitory concentration (IC50) in assay [1] fell in the range of 0.1 to 1 µM. For the same compound, in assay [2], the CDK5/CDK2 specificity result was “++ (greater than 10-fold and less than or equal to 100-fold more active against CDK5 than CDK2)”; the concentration for half-maximal inhibition (IC50) lay within 0.01 to 0.1 µM.
Consider `CN1CCC(S(=O)(=O)c2ccc3cnc(Nc4cccc(CC#N)c4)cc3n2)CC1`, for which, in assay [1], the IC50 is 0.01 to 0.1 µM. In assay [2], the CDK5/CDK2 specificity entry was “++ (greater than 10-fold and less than or equal to 100-fold more active against CDK5 than CDK2)”; the IC50 is less than 0.01 µM.
For `CC[C@H](c1ccc2cnc(Nc3ccc(-n4ccc(CO)n4)cc3F)cc2n1)C1CCN(C)CC1`, the half-inhibitory concentration (IC50) was greater than 1 µM in assay [1] and 0.01 to 0.1 µM in assay [2]. In assay [2], the CDK5/CDK2 specificity entry was “+++ (greater than 100-fold more active against CDK5 than CDK2)”.
As for `C[C@H]1C[C@@H](S(=O)(=O)c2ccc3cnc(Nc4ccc(-n5ccc(CO)n5)cc4F)cc3n2)CCN1`, the IC50 in assay [1] is greater than 1 µM; in assay [2] it was 0.01 to 0.1 µM. Besides, the CDK5/CDK2 specificity result in assay [2] was “++ (greater than 10-fold and less than or equal to 100-fold more active against CDK5 than CDK2)”.
`CCOC(=O)c1ccccc1-c1ccc(Nc2cc3nc(S(=O)(=O)C4CCN(C)CC4)ccc3cn2)c(F)c1`: the IC50 in assay [1] is greater than 1 µM. In assay [2], the CDK5/CDK2 specificity entry is listed as “+++ (greater than 100-fold more active against CDK5 than CDK2)” and the 50% inhibitory concentration (IC50) is 0.01 to 0.1 µM.
As for `CN1CCC(S(=O)(=O)c2ccc3cnc(Nc4ccc5c(c4)CCNC5=O)cc3n2)CC1`, the concentration for half-maximal inhibition (IC50) in assay [1] was 0.01 to 0.1 µM. For the same compound, in assay [2], the CDK5/CDK2 specificity entry is “++ (greater than 10-fold and less than or equal to 100-fold more active against CDK5 than CDK2)”; the IC50 was less than 0.01 µM.
On to `CN1CCC(Sc2ccc3cnc(Nc4ccc(-c5cccc(C#N)c5)cc4F)cc3n2)CC1`, for which the IC50 in assay [1] lay in the range of 0.01 to 0.1 µM. In addition, in assay [2], the CDK5/CDK2 specificity result is “+++ (greater than 100-fold more active against CDK5 than CDK2)” and the IC50 was less than 0.01 µM.
On the same counts, the results for `CN1CCC(S(=O)(=O)c2ccc3cnc(Nc4ccc(-c5cccc(F)c5)cc4F)cc3n2)CC1` are greater than 1 µM, “+++ (greater than 100-fold more active against CDK5 than CDK2)” and less than 0.01 µM.
For the compound `COc1cc(-c2ccc(Nc3cc4nc([C@](O)(C5CCN(C)CC5)C(F)(F)F)ccc4cn3)c(F)c2)ccn1`, in assay [1], the IC50 is greater than 1 µM. In assay [2], the CDK5/CDK2 specificity result was “++ (greater than 10-fold and less than or equal to 100-fold more active against CDK5 than CDK2)”; the IC50 is greater than 1 µM.
With `CN1CCC([C@@](C)(O)c2ccc3cnc(Nc4ccc(-c5ccc[nH]c5=O)cc4F)cc3n2)CC1`, the IC50 in assay [1] was in the range of 0.1 to 1 µM. Also, in assay [2], the CDK5/CDK2 specificity entry is “++ (greater than 10-fold and less than or equal to 100-fold more active against CDK5 than CDK2)”; the IC50 was less than 0.01 µM.
Consider `CN1CCC([C@@](C)(O)c2ccc3cnc(Nc4cc(-c5cccn(C)c5=O)ccc4F)cc3n2)CC1`, for which the IC50 in assay [1] lay in the range of 0.1 to 1 µM. Moreover, in assay [2], the CDK5/CDK2 specificity entry was “++ (greater than 10-fold and less than or equal to 100-fold more active against CDK5 than CDK2)”; the IC50 is less than 0.01 µM.
For `C[C@@H]1CNCC[C@@H]1Sc1ccc2cnc(Nc3ccc(-n4ccc(CO)n4)cc3F)cc2n1`, the IC50 in assay [1] is 0.1 to 1 µM. In assay [2], the CDK5/CDK2 specificity result was “++ (greater than 10-fold and less than or equal to 100-fold more active against CDK5 than CDK2)”; the IC50 was less than 0.01 µM.
On to `CN1CCC(C(O)(c2ccc3cnc(Nc4ccc(-c5cccn(C)c5=O)cc4F)cc3n2)C(F)(F)F)CC1` (single isomer, unassigned) [403], for which, in assay [1], the IC50 is greater than 1 µM. Besides, in assay [2], the CDK5/CDK2 specificity result was “++ (greater than 10-fold and less than or equal to 100-fold more active against CDK5 than CDK2)”; the IC50 is 0.1 to 1 µM.
On to `CN1CCC([C@H](O)c2ccc3cnc(Nc4ccc(-n5cccn5)cc4F)cc3n2)CC1` (single isomer, unassigned), for which, in assay [1], the IC50 was greater than 1 µM. In addition, in assay [2], the CDK5/CDK2 specificity result was “++ (greater than 10-fold and less than or equal to 100-fold more active against CDK5 than CDK2)”; the IC50 was 0.01 to 0.1 µM.
